Sequences of proteins named here, by UniProt entry; tags and fusion partners are left off.
UniProt P35222, whole entry: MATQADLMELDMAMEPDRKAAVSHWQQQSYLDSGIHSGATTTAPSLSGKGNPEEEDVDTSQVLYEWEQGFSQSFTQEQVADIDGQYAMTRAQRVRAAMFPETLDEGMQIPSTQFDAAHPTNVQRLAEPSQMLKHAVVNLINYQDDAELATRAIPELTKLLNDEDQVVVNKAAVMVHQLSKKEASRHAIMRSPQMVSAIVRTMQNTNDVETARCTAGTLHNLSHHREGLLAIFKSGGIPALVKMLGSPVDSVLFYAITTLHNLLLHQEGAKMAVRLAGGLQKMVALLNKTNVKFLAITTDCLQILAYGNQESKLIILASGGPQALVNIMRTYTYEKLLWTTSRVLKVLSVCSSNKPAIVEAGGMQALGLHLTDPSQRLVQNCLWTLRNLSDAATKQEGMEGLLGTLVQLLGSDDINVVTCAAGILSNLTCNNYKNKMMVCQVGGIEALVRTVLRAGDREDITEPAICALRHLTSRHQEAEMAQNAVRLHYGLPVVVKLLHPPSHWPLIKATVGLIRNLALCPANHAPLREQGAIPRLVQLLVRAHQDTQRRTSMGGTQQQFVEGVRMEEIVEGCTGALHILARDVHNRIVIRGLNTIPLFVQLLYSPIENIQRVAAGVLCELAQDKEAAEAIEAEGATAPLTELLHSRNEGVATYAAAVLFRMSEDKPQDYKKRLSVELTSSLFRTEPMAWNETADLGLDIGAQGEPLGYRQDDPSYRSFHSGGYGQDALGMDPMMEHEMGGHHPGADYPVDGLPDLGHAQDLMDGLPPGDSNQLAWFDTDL

In patent US20240360179A1, “STAPLED PEPTIDES AND METHODS THEREOF” (FOG PHARMACEUTICALS, INC., priority 2021, published 2024):

Tests used:
[1] = target: T1, full-length B-Catenin (Uniprot ID P35222) (Homo sapiens, UniProt P35222); experiment: biochemical; format: binding; conditions: beta-Catenin FP IC50 (nM), competition fluorescence polarization
T1 construct: 10 nM full-length B-Catenin (Uniprot ID P35222)

[2] = target: beta-catenin/TCF4 interaction (Homo sapiens, UniProt P35222); experiment: cell-based; set-up: host or cells: HEK293; conditions: NanoBRET Abs IC50 (uM), absolute IC50

| SMILES | IC50 [1] [nM] | IC50 [2] [µM] |
| --- | --- | --- |
| CC(=O)N1CCC[C@]12CC=CCCCC1(CCCC=CCCCOC(=O)N3CC[C@@]4(C3)NC(=O)[C@H](CCCCNC(=O)CC[C@@H](C(=O)N[C@@H](C)C(N)=O)NC(=O)[C@H](Cc3csc5ccccc35)NC(=O)[C@H](Cc3ccsc3)NC4=O)NC(=O)[C@H](Cc3ccccc3)NC(=O)[C@H](C)NC(=O)[C@](C)(CO)NC(=O)[C@H](Cc3cccc(C(=O)O)c3)NC(=O)[C@H](CC(=O)O)NC1=O)NC(=O)[C@H](CC(C)(C)C)NC(=O)[C@H](CC(=O)O)NC2=O (relative stereo) [I-435, Ac-PL3-Asp-Npg-B5-Asp-3COOHF-aMeS-Ala-Phe-Lys*3-PyrS2-3Thi-BztA-GlnR*3-Ala-NH2] | < 50 | > 10 |
| CC(=O)N1CCC[C@]12CC=CCCCC1(CCCC=CCCCOC(=O)N3CC[C@@]4(C3)NC(=O)[C@H](CCCCNC(=O)CC[C@@H](C(=O)N[C@@H](C)C(N)=O)NC(=O)[C@H](Cc3csc5ccccc35)NC(=O)[C@H](Cc3ccsc3)NC4=O)NC(=O)[C@H](Cc3ccccc3)NC(=O)C(C)(C)NC(=O)C(C)(C)NC(=O)[C@H](Cc3cccc(C(=O)O)c3)NC(=O)[C@H](CC(=O)O)NC1=O)NC(=O)[C@H](CC(C)(C)C)NC(=O)[C@H](CC(=O)O)NC2=O (relative stereo) [I-439, Ac-PL3-Asp-Npg-B5-Asp-3COOHF-Aib-Aib-Phe-Lys*3-PyrS2-3Thi-BztA-GlnR*3-Ala-NH2] | < 50 | > 10 |
| CC(=O)N1CCC[C@]12CC=CCCCC1(CCCC=CCCCOC(=O)N3CC[C@@]4(C3)NC(=O)[C@H](CCCCNC(=O)CC[C@@H](C(=O)N[C@@H](C)C(N)=O)NC(=O)[C@H](Cc3csc5ccccc35)NC(=O)[C@H](Cc3ccsc3)NC4=O)NC(=O)[C@H](Cc3ccccc3)NC(=O)C3(CC3)NC(=O)C(C)(C)NC(=O)[C@H](Cc3cccc(C(=O)O)c3)NC(=O)[C@H](CC(=O)O)NC1=O)NC(=O)[C@H](CC(C)(C)C)NC(=O)[C@H](CC(=O)O)NC2=O (relative stereo) [I-440, Ac-PL3-Asp-Npg-B5-Asp-3COOHF-Aib-Cpg-Phe-Lys*3-PyrS2-3Thi-BztA-GlnR*3-Ala-NH2] | < 50 | > 10 |
| CC(=O)N1CCC[C@]12CC=CCCCC1(CCCC=CCCCOC(=O)N3CC[C@@]4(C3)NC(=O)[C@H](CCCCNC(=O)CC[C@@H](C(=O)N[C@@H](C)C(N)=O)NC(=O)[C@H](Cc3csc5ccccc35)NC(=O)[C@H](Cc3ccsc3)NC4=O)NC(=O)[C@H](Cc3ccccc3)NC(=O)C3(CC3)NC(=O)[C@H](C)NC(=O)[C@H](Cc3cccc(C(=O)O)c3)NC(=O)[C@H](CC(=O)O)NC1=O)NC(=O)[C@H](CC(C)(C)C)NC(=O)[C@H](CC(=O)O)NC2=O (relative stereo) [I-443, Ac-PL3-Asp-Npg-B5-Asp-3COOHF-Ala-Cpg-Phe-Lys*3-PyrS2-3Thi-BztA-GlnR*3-Ala-NH2] | < 50 | > 10 |
| CC(=O)N1CCC[C@]12CC=CCCCC1(CCCC=CCCCOC(=O)N3CC[C@@]4(C3)NC(=O)[C@H](CCCCNC(=O)CC[C@@H](C(=O)N[C@@H](C)C(N)=O)NC(=O)[C@H](Cc3csc5ccccc35)NC(=O)[C@H](Cc3ccsc3)NC4=O)NC(=O)[C@H](Cc3ccccc3)NC(=O)[C@H](CCC(=O)N3CCOCC3)NC(=O)C(C)(C)NC(=O)[C@H](Cc3cccc(C(=O)O)c3)NC(=O)[C@H](CC(=O)O)NC1=O)NC(=O)[C@H](CC(C)(C)C)NC(=O)[C@H](CC(=O)O)NC2=O (relative stereo) [I-453, Ac-PL3-Asp-Npg-B5-Asp-3COOHF-Aib-MorphGln-Phe-Lys*3-PyrS2-3Thi-BztA-GlnR*3-Ala-NH2] | < 50 | > 10 |
| CC(=O)N1CCC[C@]12CC=CCCCC1(CCCC=CCCCOC(=O)N3CC[C@@]4(C3)NC(=O)[C@H](CCCCNC(=O)CC[C@@H](C(=O)N[C@H](CC(C)C)C(N)=O)NC(=O)[C@H](Cc3csc5ccccc35)NC(=O)[C@H](Cc3ccsc3)NC4=O)NC(=O)[C@H](Cc3ccccc3)NC(=O)[C@H](C)NC(=O)C(C)(C)NC(=O)[C@H](Cc3cccc(C(=O)O)c3)NC(=O)[C@H](CC(=O)O)NC1=O)NC(=O)[C@H](CC(C)(C)C)NC(=O)[C@H](CC(=O)O)NC2=O (relative stereo) [I-462, Ac-PL3-Asp-Npg-B5-Asp-3COOHF-Aib-Ala-Phe-Lys*3-PyrS2-3Thi-BztA-GlnR*3-dLeu-NH2] | < 50 | 3 to 10 |
| CC(=O)N1CCC[C@]12CC=CCCCC1(CCCC=CCCCOC(=O)N3CC[C@@]4(C3)NC(=O)[C@H](CCCCNC(=O)CC[C@@H](C(=O)N[C@@H](C)C(=O)N[C@@H](CO)C(=O)N[C@@H](CC(C)C)C(N)=O)NC(=O)[C@H](Cc3csc5ccccc35)NC(=O)[C@H](Cc3ccsc3)NC4=O)NC(=O)[C@H](Cc3ccccc3)NC(=O)[C@H](C)NC(=O)C(C)(C)NC(=O)[C@H](Cc3cccc(C(=O)O)c3)NC(=O)[C@H](CC(=O)O)NC1=O)NC(=O)[C@H](CC(C)(C)C)NC(=O)[C@H](CC(=O)O)NC2=O (relative stereo) [I-464, Ac-PL3-Asp-Npg-B5-Asp-3COOHF-Aib-Ala-Phe-Lys*3-PyrS2-3Thi-BztA-GlnR*3-Ala-Ser-Leu-NH2] | < 50 | 1.5 to 3 |
| CC(=O)N1CCC[C@]12CC=CCCCC1(CCCC=CCCCOC(=O)N3CC[C@@]4(C3)NC(=O)[C@H](CCCCNC(=O)CC[C@@H](C(=O)N[C@@H](C)C(N)=O)NC(=O)[C@H](Cc3csc5ccccc35)NC(=O)[C@H](Cc3ccccc3C(F)(F)F)NC4=O)NC(=O)[C@H](Cc3ccccc3)NC(=O)[C@H](C)NC(=O)C(C)(C)NC(=O)[C@H](Cc3cccc(C(=O)O)c3)NC(=O)[C@H](CC(=O)O)NC1=O)NC(=O)[C@H](CC(C)(C)C)NC(=O)[C@H](CC(=O)O)OC2=O (relative stereo) [I-469, Ac-PL3-OAsp-Npg-B5-Asp-3COOHF-Aib-Ala-Phe-Lys*3-PyrS2-2F3MeF-BztA-GlnR*3-Ala-NH2] | 50 to 200 | > 10 |
| CC(=O)N1CCC[C@]12CC=CCCCC1(CCCC=CCCCOC(=O)N3CC[C@@]4(C3)NC(=O)[C@H](CCCCNC(=O)CC[C@@H](C(=O)N[C@@H](C)C(N)=O)NC(=O)[C@H](Cc3csc5ccccc35)NC(=O)[C@H](Cc3ccsc3)NC4=O)NC(=O)[C@H](Cc3ccccc3)NC(=O)[C@H](C)NC(=O)C(C)(C)NC(=O)[C@H](Cc3cccc(C(=O)O)c3)NC(=O)[C@H](CCC(=O)O)NC1=O)NC(=O)[C@H](CC(C)(C)C)NC(=O)[C@H](CCC(=O)O)NC2=O (relative stereo) [I-470, Ac-PL3-Glu-Npg-B5-Glu-3COOHF-Aib-Ala-Phe-Lys*3-PyrS2-3Thi-BztA-GlnR*3-Ala-NH2] | > 1000 | > 10 |

Other lines, results leading:

| IC50 [1] [nM] | IC50 [2] [µM] | SMILES |
| --- | --- | --- |
| < 50 | > 10 | CC(=O)N1CCC[C@]12CC=CCCCC1(CCCC=CCCCOC(=O)N3CC[C@@]4(C3)NC(=O)[C@H](CCCCNC(=O)CC[C@@H](C(=O)N[C@@H](C)C(N)=O)NC(=O)[C@H](Cc3csc5ccccc35)NC(=O)[C@H](Cc3ccsc3)NC4=O)NC(=O)[C@H](Cc3ccccc3)NC(=O)[C@H](C)NC(=O)[C@](C)(C(C)C)NC(=O)[C@H](Cc3cccc(C(=O)O)c3)NC(=O)[C@H](CC(=O)O)NC1=O)NC(=O)[C@H](CC(C)(C)C)NC(=O)[C@H](CC(=O)O)NC2=O (relative stereo) [I-434, Ac-PL3-Asp-Npg-B5-Asp-3COOHF-aMeV-Ala-Phe-Lys*3-PyrS2-3Thi-BztA-GlnR*3-Ala-NH2] |
| < 50 | > 10 | CC(=O)N1CCC[C@]12CC=CCCCC1(CCCC=CCCCOC(=O)N3CC[C@@]4(C3)NC(=O)[C@H](CCCCNC(=O)CC[C@@H](C(=O)N[C@@H](C)C(N)=O)NC(=O)[C@H](Cc3csc5ccccc35)NC(=O)[C@H](Cc3ccsc3)NC4=O)NC(=O)[C@H](Cc3ccccc3)NC(=O)[C@H](C)NC(=O)[C@](C)(Cc3ccccc3)NC(=O)[C@H](Cc3cccc(C(=O)O)c3)NC(=O)[C@H](CC(=O)O)NC1=O)NC(=O)[C@H](CC(C)(C)C)NC(=O)[C@H](CC(=O)O)NC2=O (relative stereo) [I-438, Ac-PL3-Asp-Npg-B5-Asp-3COOHF-aMeF-Ala-Phe-Lys*3-PyrS2-3Thi-BztA-GlnR*3-Ala-NH2] |
| < 50 | 3 to 10 | CC(=O)N1CCC[C@]12CC=CCCCC1(CCCC=CCCCOC(=O)N3CC[C@@]4(C3)NC(=O)[C@H](CCCCNC(=O)CC[C@@H](C(=O)N[C@@H](C)C(N)=O)NC(=O)[C@H](Cc3csc5ccccc35)NC(=O)[C@H](Cc3ccsc3)NC4=O)NC(=O)[C@H](Cc3ccccc3)NC(=O)[C@H](CO)NC(=O)C(C)(C)NC(=O)[C@H](Cc3cccc(C(=O)O)c3)NC(=O)[C@H](CC(=O)O)NC1=O)NC(=O)[C@H](CC(C)(C)C)NC(=O)[C@H](CC(=O)O)NC2=O (relative stereo) [I-444, Ac-PL3-Asp-Npg-B5-Asp-3COOHF-Aib-Ser-Phe-Lys*3-PyrS2-3Thi-BztA-GlnR*3-Ala-NH2] |
| < 50 | 3 to 10 | CC(=O)N1CCC[C@]12CC=CCCCC1(CCCC=CCCCOC(=O)N3CC[C@@]4(C3)NC(=O)[C@H](CCCCNC(=O)CC[C@@H](C(=O)N[C@@H](C)C(N)=O)NC(=O)[C@H](Cc3csc5ccccc35)NC(=O)[C@H](Cc3ccsc3)NC4=O)NC(=O)[C@H](Cc3ccccc3)NC(=O)[C@H]([C@@H](C)O)NC(=O)C(C)(C)NC(=O)[C@H](Cc3cccc(C(=O)O)c3)NC(=O)[C@H](CC(=O)O)NC1=O)NC(=O)[C@H](CC(C)(C)C)NC(=O)[C@H](CC(=O)O)NC2=O (relative stereo) [I-445, Ac-PL3-Asp-Npg-B5-Asp-3COOHF-Aib-Thr-Phe-Lys*3-PyrS2-3Thi-BztA-GlnR*3-Ala-NH2] |
| < 50 | > 10 | CC(=O)N1CCC[C@]12CC=CCCCC1(CCCC=CCCCOC(=O)N3CC[C@@]4(C3)NC(=O)[C@H](CCCCNC(=O)CC[C@@H](C(=O)N[C@@H](C)C(N)=O)NC(=O)[C@H](Cc3csc5ccccc35)NC(=O)[C@H](Cc3ccsc3)NC4=O)NC(=O)[C@H](Cc3ccccc3)NC(=O)[C@H]([C@H](C)O)NC(=O)C(C)(C)NC(=O)[C@H](Cc3cccc(C(=O)O)c3)NC(=O)[C@H](CC(=O)O)NC1=O)NC(=O)[C@H](CC(C)(C)C)NC(=O)[C@H](CC(=O)O)NC2=O (relative stereo) [I-446, Ac-PL3-Asp-Npg-B5-Asp-3COOHF-Aib-aThr-Phe-Lys*3-PyrS2-3Thi-BztA-GlnR*3-Ala-NH2] |
